Test [1] addresses Tyrosine-protein phosphatase non-receptor type 6 (Homo sapiens, UniProt P29350). In words: Ratio between dissociation constant and First-order rate constant (Ki / K inact) of SHP 1 was determined.
In test [2] the target is T1, Tyrosine-protein phosphatase non-receptor type 1 (Homo sapiens) (UniProt P18031).
T1 sequence (whole entry): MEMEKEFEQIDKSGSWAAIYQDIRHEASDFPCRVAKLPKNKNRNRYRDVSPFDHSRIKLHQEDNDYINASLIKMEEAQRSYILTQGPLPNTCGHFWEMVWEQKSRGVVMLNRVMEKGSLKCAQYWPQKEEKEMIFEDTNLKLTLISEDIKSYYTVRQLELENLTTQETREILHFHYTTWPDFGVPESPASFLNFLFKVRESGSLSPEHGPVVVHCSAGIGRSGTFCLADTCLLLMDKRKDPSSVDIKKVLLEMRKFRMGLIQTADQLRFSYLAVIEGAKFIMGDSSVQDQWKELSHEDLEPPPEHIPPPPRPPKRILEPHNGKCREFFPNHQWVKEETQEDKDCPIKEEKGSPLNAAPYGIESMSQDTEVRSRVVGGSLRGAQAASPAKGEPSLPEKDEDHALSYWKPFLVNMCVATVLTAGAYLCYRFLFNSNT
Briefly: Ratio between dissociation constant and First-order rate constant (Ki / K inact) of PTP 1B was determined.

Amino acid sequences for entries named in this document (tags omitted). A change or cut given only in a name is not applied to a line headed by its entry.
UniProt P29350: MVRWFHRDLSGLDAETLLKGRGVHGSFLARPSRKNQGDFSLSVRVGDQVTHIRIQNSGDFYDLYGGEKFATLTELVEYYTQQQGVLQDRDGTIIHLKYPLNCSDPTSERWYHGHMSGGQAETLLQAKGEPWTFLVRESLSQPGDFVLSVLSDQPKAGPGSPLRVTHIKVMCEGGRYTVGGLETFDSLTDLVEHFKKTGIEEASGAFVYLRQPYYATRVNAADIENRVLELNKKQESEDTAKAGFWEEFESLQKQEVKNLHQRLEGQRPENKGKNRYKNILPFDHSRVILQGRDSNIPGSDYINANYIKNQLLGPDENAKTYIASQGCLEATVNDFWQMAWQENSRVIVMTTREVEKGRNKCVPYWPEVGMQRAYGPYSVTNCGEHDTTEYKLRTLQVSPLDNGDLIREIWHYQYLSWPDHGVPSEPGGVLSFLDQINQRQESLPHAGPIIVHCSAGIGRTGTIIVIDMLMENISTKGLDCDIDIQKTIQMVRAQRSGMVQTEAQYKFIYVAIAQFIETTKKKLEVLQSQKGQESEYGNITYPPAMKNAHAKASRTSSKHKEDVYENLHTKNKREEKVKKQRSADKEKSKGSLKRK

The values that follow come from ChEMBL document CHEMBL1135556, “alpha-bromoacetophenone derivatives as neutral protein tyrosine phosphatase inhibitors: structure-Activity relationship” (Bioorg Med Chem Lett, 2002).

Regarding `O=C(O)CCC(NC(=O)[C@H](CCC(=O)O)NC(=O)CNC(=O)c1ccccc1-c1ccc(C(=O)CBr)cc1)C(=O)O` (some centres not stated), the Ratio in test [1] stood at 666 M⁻¹ min⁻¹; in test [2] it was 36000 M⁻¹ min⁻¹.
